From ChEMBL document CHEMBL1151717, “In vivo active aldosterone synthase inhibitors with improved selectivity: lead optimization providing a series of pyridine substituted 3,4-dihydro-1H-quinolin-2-one derivatives” (J Med Chem, 2008)

Molecular target: T1, Cytochrome P450 11B2, mitochondrial (Homo sapiens, UniProt P19099)
T1 sequence (P19099 whole entry): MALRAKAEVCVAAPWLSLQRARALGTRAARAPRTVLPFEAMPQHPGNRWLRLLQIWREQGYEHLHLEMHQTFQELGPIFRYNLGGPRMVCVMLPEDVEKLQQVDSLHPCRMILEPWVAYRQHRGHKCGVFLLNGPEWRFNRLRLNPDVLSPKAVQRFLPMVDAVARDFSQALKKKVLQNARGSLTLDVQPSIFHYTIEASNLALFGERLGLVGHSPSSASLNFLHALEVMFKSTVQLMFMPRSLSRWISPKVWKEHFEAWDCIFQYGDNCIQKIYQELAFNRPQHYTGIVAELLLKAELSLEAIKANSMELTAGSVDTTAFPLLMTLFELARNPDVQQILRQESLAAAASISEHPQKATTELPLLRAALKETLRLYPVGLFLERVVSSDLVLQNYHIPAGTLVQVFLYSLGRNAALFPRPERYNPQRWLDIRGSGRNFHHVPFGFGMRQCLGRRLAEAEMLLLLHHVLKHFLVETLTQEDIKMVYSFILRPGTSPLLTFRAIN
Assay: Inhibition of human CYP11B2 expressed in hamster V79 MZh cells at 500 nM
Assay type: cell-based
Conditions: V79MZh

| SMILES | inhibition at 0.5 µM [%] |
| --- | --- |
| CCN1C(=O)CCc2cc(-c3cccnc3)ccc21 | 93 |
| O=C1CCc2cc(-c3cccnc3)ccc2N1 | 88 |
| O=C1CCc2cc(-c3cccnc3)cc(Cl)c2N1 | 97 |
| O=C1CSc2cc(-c3cccnc3)ccc2N1 | 92 |
